Test results from patent publication EP1276722B1, “NAPHTHAMIDINE UROKINASE INHIBITORS” (ABBOTT LABORATORIES, priority 2000, dated 2001).
pKi: −log10 of the molar value.

molecular target: T1, urokinase enzyme Abbokinase (Homo sapiens, UniProt P00749); test: Inhibition of urokinase on chromogenic substrate S-2444; type: biochemical
T1 construct: purchased Abbott Laboratories, Abbott Park, IL

pKi | SMILES
6.44 | CC(C)C1=NCCc2ccc([C@@H]3C[C@H]3c3ccc4cc(C(=N)N)ccc4c3)cc21 [Example 29, 6-((1R,2R)-2-(1-isopropyl-3,4-dihydro-7-isoquinolinyl)cyclopropyl)-2-naphthalenecarboximidamide]
7.24 | CC(C)C1=NCCc2ccc([C@H]3C[C@@H]3c3ccc4cc(C(=N)N)ccc4c3)cc21 [Example 28, 6-((1S,2S)-2-(1-isopropyl-3,4-dihydro-7-isoquinolinyl)cyclopropyl)-2-naphthalenecarboximidamide]
6.84 | CC(C)C1=NCCc2ccc(C3CC3c3ccc4cc(C(=N)N)ccc4c3)cc21 (stereo not drawn) [Example 14, 6-(2-(1-isopropyl-3,4-dihydro-7-isoquinolinyl)cyclopropyl)-2-naphthalenecarboximidamide]
